Structures are written as SMILES. The list shows a part of the results, in another mix than the full data. Calls of active or inactive are those of the source. No stated cut-off is given here; in the data, active means activation above about 15%; inactive means the rest.

This assay is described as follows: counter-screen for M1 agonists: effect in parental CHO-K1 cells (AID 602248).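 Further: untransfected CHO-K1 host cells lacking M1 receptor as counterscreen.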 Particulars: Fluo-8 calcium fluorescence, at 3 µM, hits give high values, scaled to maximal ATP response, vehicle zero.
For `O=C(O)C(=O)c1ccc(N(CCCl)CCCl)cc1`, the activation was inactive: 0.86%.

Regarding `O=C(Nc1ccncc1[N+](=O)[O-])c1ccc([N+](=O)[O-])cc1[N+](=O)[O-]`, the activation is inactive: 0.92%.

Turning to `O=C(COc1ccccc1)OC1CN2CCC1CC2` (stereo not drawn), the activation was inactive: 1.05%.

`COC(=O)C1(C)COP(=O)(N2CCCC2)OC1` (stereo not drawn): the activation is inactive: -0.11%.

As for `COP1(=S)c2c(C)nn(CCC#N)c2N=C(c2ccc(F)cc2)N1C` (stereo not drawn), the activation is inactive: 0.73%.

As to `CCC(C)N(CC(C)C)C(=S)SC(NC(C)=O)C(Cl)(Cl)Cl` (stereo not drawn), the activation is inactive: 0.57%.

As to `CSc1ccc(Nc2c([N+](=O)[O-])cc([N+](=O)[O-])cc2[N+](=O)[O-])cc1`, the activation was inactive: 11.1%.

As to `O=C(OC1CN2CCC1CC2)c1cccc([N+](=O)[O-])c1` (stereo not drawn), the activation is inactive: 2.36%.

As to `CCOC(=O)c1ccc(NC(=O)C(C)(CCl)SC)cc1` (stereo not drawn), the activation was inactive: 2.67%.

Consider `COP(=O)(OC)N1CC1c1ccccc1` (stereo not drawn), for which the activation was inactive: 0.05%.

As to `Cc1cc(SC(NC(=O)c2ccccc2)C(Cl)(Cl)Cl)nc(C(C)C)n1` (stereo not drawn), the activation was inactive: 0.47%.

Turning to `O=C(O)C(O)c1ccc(N(CCCl)CCCl)cc1` (stereo not drawn), the activation is inactive: -0.39%.

Take `CCOC(=O)Nc1ccc([As](=O)(O)O)c(O)c1`: the activation is inactive: 1.42%.

In the case of `C/C=C1/CC(C)C(C)(O)C(=O)OCC2CCN3CCC(OC1=O)C23` (stereo not drawn), the activation was inactive: 0.72%.

Regarding `CC1CCNP(=O)(N(CCCl)CCCl)O1` (stereo not drawn), the activation was inactive: 0.33%.

Take `Cc1cc(SC(NC=O)C(Cl)(Cl)Cl)ncn1` (stereo not drawn): the activation is inactive: 1.37%.

Regarding `O=P(Nc1ccccn1)(c1cccc2ccccc12)c1cccc2ccccc12`, the activation is inactive: 1.86%.

For `O=[N+]([O-])c1ccc(Nc2ccc(Oc3ccc([N+](=O)[O-])cc3[N+](=O)[O-])cc2)c([N+](=O)[O-])c1`, the activation was inactive: 0.99%.

In the case of `CCOC(=O)Nc1cccc([As](=O)(O)O)c1`, the activation is inactive: -0.15%.

Turning to `CC(Cc1ccc(O)cc1)NCC(O)c1cc(O)cc(O)c1` (stereo not drawn), the activation was inactive: -0.3%.

`Cc1ccc(OP(=O)(Nc2ccc([N+](=O)[O-])cn2)Oc2ccc(C)cc2)cc1`: the activation was inactive: 0.85%.

For `[N-]=[N+]=NC1CCCCC1NC(=O)c1cc([N+](=O)[O-])cc([N+](=O)[O-])c1` (stereo not drawn), the activation was inactive: 0.69%.

As to `Cc1ccc2nc3c(c(C)c2c1)CC(C(Cl)Cl)S3` (stereo not drawn), the activation is inactive: -1.12%.

Consider `O=[N+]([O-])c1ccc(-c2cc([N+](=O)[O-])c(O)c([N+](=O)[O-])c2)cc1`, for which the activation is inactive: 0.39%.

As to `O=[As](O)(c1ccc(O)cc1)c1ccccc1O`, the activation was inactive: 1.62%.

In the case of `C[As](=O)(O)c1cccc(C(=O)O)c1`, the activation is inactive: 10.6%.

Take `O=[N+]([O-])c1cc([N+](=O)[O-])c(-c2ccn[nH]2)s1`: the activation is inactive: 0.27%.

`O=C(OC1CN2CCC1CC2)c1cccc2[nH]cnc12` (stereo not drawn): the activation is inactive: -0.26%.

In the case of `CCN(CC)C(=S)SC(NC=O)C(Cl)(Cl)Cl` (stereo not drawn), the activation is inactive: -0.01%.

Consider `CC(C)NC(=O)NP(=O)(Oc1ccccc1)Oc1ccccc1`, for which the activation is inactive: -0.06%.

With `ClCCSc1nnc(-c2cccnc2)o1`, the activation was inactive: 0.06%.

As for `CC(C)c1ccc(OP(=O)(Nc2ccccn2)Oc2ccccc2F)cc1` (stereo not drawn), the activation is inactive: 0.12%.

In the case of `COC(=O)C1(C)COP(=O)(N2CCCCCC2)OC1` (stereo not drawn), the activation is inactive: 1.48%.

In the case of `O=P1(N(CCCl)CCCl)OCCCN1CCCl` (stereo not drawn), the activation was inactive: 1.09%.

On to `O=P1(N(CCCl)CCCl)Nc2ccccc2N1`, for which the activation was inactive: 0.05%.

Regarding `COc1cc(I)ccc1[As](=O)(O)O`, the activation was inactive: 0.48%.

Consider `COc1ccc2nc(NP(=O)(c3ccccc3)c3ccccc3)sc2c1`, for which the activation was inactive: 2.04%.

As to `Cc1c2c(nc3ccccc13)SC(C(Cl)Cl)C2` (stereo not drawn), the activation was inactive: -0.25%.

Consider `Cc1cc(=O)[nH]c(N[N+](=O)[O-])n1`, for which the activation is inactive: 0.24%.

Consider `O=C(OC1CN2CCC1CC2)C12CC3CC(CC(C3)C1)C2` (stereo not drawn), for which the activation was inactive: 0.28%.

Consider `O=[N+]([O-])c1cc(Oc2ccc([N+](=O)[O-])cc2C(F)(F)F)cc([N+](=O)[O-])c1`, for which the activation was inactive: 0.11%.

With `COc1ccc(N/C(=N/P(=O)(N2CCOCC2)N2CCOCC2)N2CCOCC2)cc1`, the activation is inactive: 0.88%.

With `O=[As](O)(c1cccc(O)c1)c1cccc(O)c1`, the activation was inactive: 0.54%.

Turning to `Cc1cccc(OCC(=O)OC2CN3CCC2CC3)c1` (stereo not drawn), the activation is inactive: 0.25%.

As for `O=C(OC1CN2CCC1CC2)c1ccc(Cl)cc1` (stereo not drawn), the activation is inactive: 0.43%.

For the compound `CS(=O)(=O)c1ccc(Cl)c(NC(=O)COC(=O)C(O)(c2ccccc2)c2ccccc2)c1`, the activation was inactive: 8.99%.

As to `O=[As](O)(O)c1cccnc1`, the activation is inactive: 0.92%.

Consider `CCOP(=O)(Nc1cccc2ccccc12)OCC`, for which the activation is inactive: 1.71%.

As for `COc1cc(C2NCCC3(OCCO3)C2(C)C)cc(OC)c1OC` (stereo not drawn), the activation was inactive: -0.45%.

On to `Nc1cccc2c([As](=O)(O)O)cccc12`, for which the activation was inactive: 8.52%.

As to `Cc1ccc(NCCc2c([N+](=O)[O-])cc([N+](=O)[O-])cc2[N+](=O)[O-])cc1`, the activation was inactive: -0.74%.

Consider `CCCOP(=S)(Nc1nc(N)cc(=O)[nH]1)OCCC`, for which the activation is inactive: 1.02%.

For `C[C@H]1C(=O)O[C@@H]2CCN3CC=C(COC(=O)[C@](C)(O)[C@]1(C)O)[C@H]23`, the activation is inactive: 1.19%.

Regarding `O=C(O)COc1ccc([As](=O)(O)O)cc1[N+](=O)[O-]`, the activation is inactive: -0.78%.

For `Nc1ccccc1[As](=O)(O)c1ccccc1`, the activation was inactive: 0.69%.

For `O=P(Nc1nccs1)(c1ccccc1)c1nc2ccccc2s1` (stereo not drawn), the activation is inactive: 0.92%.

As to `O=P(Nc1nccs1)(Oc1ccccc1)Oc1ccccc1`, the activation is inactive: 0.55%.

As to `CCOP1(=S)c2c(C)nn(CCC#N)c2N=C(c2ccccc2F)N1C` (stereo not drawn), the activation was inactive: 1.09%.

As for `CS(=O)(=O)c1cc([N+](=O)[O-])c2no[n+]([O-])c2c1`, the activation was inactive: 0.25%.

For `CCOP1(=S)c2c(C)nn(CCC#N)c2N=C(c2ccc(F)cc2)N1C` (stereo not drawn), the activation is inactive: 0.29%.

`CN(C(=O)Cc1ccccc1)[C@@H]1CC[C@]2(CCCO2)C[C@H]1N1CCCC1`: the activation was inactive: -0.05%.

In the case of `N#CCCN(C(=O)COC(=O)C(O)(c1ccccc1)c1ccccc1)c1ccc(F)cc1`, the activation was inactive: 3.03%.

As to `CN(C(=O)Cc1ccc(Cl)c(Cl)c1)[C@H]1CC[C@@]2(CCCO2)C[C@@H]1N1CCCC1`, the activation was inactive: 0.57%.

For the origin of these results see PubChem BioAssay AID602248 (The Scripps Research Institute Molecular Screening Center, 2012).
